Literature values in PMC8546421, “Molecular modelling of the FOXO4-TP53 interaction to design senolytic peptides for the elimination of senescent cancer cells” (EBioMedicine, 2021).

Sequences of proteins named here, by UniProt entry; tags and fusion partners are left off. Residues count along the entry.
UniProt P98177, 464-505: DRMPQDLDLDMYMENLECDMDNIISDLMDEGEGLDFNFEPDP
UniProt P98177, 86-206: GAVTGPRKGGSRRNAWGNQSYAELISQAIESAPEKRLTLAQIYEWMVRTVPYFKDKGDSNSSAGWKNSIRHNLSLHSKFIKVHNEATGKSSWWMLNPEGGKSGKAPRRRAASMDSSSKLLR

Columns and labels:
[1] = biological target: TP53 DBD (Homo sapiens) (UniProt P04637)
[2] = biological target: TP53 DBD (Homo sapiens) (UniProt P04637); remark: listed apart in the source

| Substance | Kd [1] [µM] | Kd [2] [µM] |
| --- | --- | --- |
| FOXO4 CR3 (from UniProt P98177) | 19 | – |
| FOXO4 FH (from UniProt P98177) | – | 1000 |

Like-named read-outs stand apart in the source and are kept apart here.
